AlphaSeq binding of Ab-14 light chain variants to a spike HR2 peptide

Reference: Li et al. 2023, doi:10.1038/s41467-023-39022-2. File: FLAb, binding data.

Antigen: PDVDLGDISGINAS, a 14-residue peptide of the SARS-CoV-2 spike HR2 region.

Ab-14 is the parent antibody, in scFv form: VH, then three GGGGS repeats, then VL. The heavy chain is unchanged in all variants.
VH: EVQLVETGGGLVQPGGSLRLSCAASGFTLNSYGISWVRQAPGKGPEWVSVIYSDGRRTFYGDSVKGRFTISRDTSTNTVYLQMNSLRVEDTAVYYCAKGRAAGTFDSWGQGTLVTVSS
VL: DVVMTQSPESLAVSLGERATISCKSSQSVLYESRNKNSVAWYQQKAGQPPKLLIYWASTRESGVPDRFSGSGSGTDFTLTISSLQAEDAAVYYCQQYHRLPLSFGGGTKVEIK

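The starting antibody came from a phage panning campaign against this peptide. Designed CDR sequences, proposed from the first random library and measured here. Their group label is 14L_En_Gibbs (En: ensemble of fine-tuned language models; Gibbs: Gibbs sampling). In AlphaSeq, yeast of one mating type display the scFv and yeast of the other type display the target. After mating in shaken culture at 30 °C for 16 h, diploids were selected and their barcode pairs sequenced. Scores were corrected for input abundance and mapped to Kd with protein pairs of known affinity run in the same pool. Each pool was mated in six replicate cultures.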

The parent's light chain CDRs are KSSQSVLYESRNKNSVA, WASTRES, QQYHRLPLS; each variant's own CDRs replace them letter for letter.
The read-out is the apparent dissociation constant on a log10 scale (nM): the lower, the stronger.
"nd" marks a missing value. The strain was present, yet no cells mated with the target were sequenced in that replicate, which points to weak or no binding.
A sequence measured in both rounds can read differently, since the two assays cover different ranges.
Nonspecific signal, from three strains lacking the peptide, appeared in 4% of pairings of all light chain designs, centred on 2.64 (5% of these signals below 1.59); values are not corrected for it. For each scFv, signals with the empty controls are counted beside the result, with their mean in brackets.
The authors' rule: three or more of the six replicates give a measured affinity, fewer mean a poor binder.

CDR-L1	CDR-L2	CDR-L3	log10 Kd (nM) by replicate	control signals
HTQHLGFGDYAWANSIA	ERSQVCA	QQYFRLPLI	1.64 1.03 0.80 1.21 1.34 1.25	0 of 18
NLNDSPMYAQIHKDAIA	QETIRNA	QQYAKLPLS	0.81 0.53 -0.06 -0.11 0.08 0.13	0 of 18
KLMGQGDHSIAHANSIA	NVDNVDA	QQYAHLPLS	1.03 1.37 1.19 0.96 1.13 1.44	0 of 18
SIDSAVAYGLQNKKNIA	EEERVDR	QQYAHLPLM	nd nd nd nd nd nd	0 of 18
KLKIEVYDNQQLRNSIA	ENELRAM	QQYLSLPLS	0.98 1.26 0.81 0.36 0.44 1.12	0 of 18
SFDLHHKQIETIESAVA	ETSVRAD	QSYDRLPLS	nd 1.49 1.60 nd nd 1.95	0 of 18
RLLYQDLAQTGKLNSVA	DATITQQ	QQYHQLPLM	0.89 1.20 0.64 0.72 0.74 0.88	2 of 18 (2.16)
SMSNLQEVPSVWKNSIA	DAEHVEY	QQYSRLPLT	-0.02 0.40 0.46 -0.43 0.06 0.26	1 of 18 (2.87)
RISRHVYDETNTYENVA	HEHIRAN	QQYSRLPLS	nd nd nd 1.63 nd 1.61	0 of 18
QMKASLLQGIYRQDSVA	SSDIRAL	QQYHHLPLS	0.79 0.28 0.34 0.39 0.20 0.65	1 of 18 (2.32)
NLSYQQFEPTGMVNSVA	QTSLRAH	QQYAHLPLC	0.83 0.88 0.56 0.82 0.77 1.09	3 of 18 (2.77)
YISMMHAGQVNESSSIA	NAEQTED	QQYHELPLV	nd nd nd nd nd nd	0 of 18
HVESAWVESNAKKKNVA	NGQGRVE	QQYGRLPLQ	0.55 0.32 0.44 0.25 0.30 0.52	1 of 18 (2.31)
KLEMDTLGQKPKQNNIA	AARVSWE	QQYYMLPLS	1.41 1.16 1.87 1.41 2.07 1.75	0 of 18
TIDDEEPSEGLKWNSIA	GVATRLQ	QQYARLPLI	0.65 0.53 0.46 0.47 0.42 0.98	3 of 18 (3.33)
KLMHLSFVHDREWNNVA	DLNVKAS	QQYDRLPLV	0.57 0.33 0.36 0.70 0.58 0.91	1 of 18 (3.15)
KFLSLSLHQTGNLNSVA	DAEETQT	QQYMRLPLM	-0.01 1.08 0.67 0.31 0.56 0.59	0 of 18
KLQNFSQEDNKMWNNIA	DTTMVHT	QQYMTLPLM	0.52 0.81 0.47 0.50 0.64 0.63	0 of 18
SVRHPFQGENGMKGSVA	NATIRDH	QQYFRLPLF	0.21 -0.05 0.17 0.07 -0.24 0.27	1 of 18 (2.07)
QLAVERGQEYKAGAAIA	GKTEKEH	QQYAMLPLS	1.37 1.06 1.58 1.24 1.02 1.24	1 of 18 (2.97)
KLAYQADMYGVQCNNVA	HADIREP	QQYFKLPLN	1.16 1.82 0.93 1.28 1.59 1.88	2 of 18 (2.45)
ILMQVYKEPGAAVNNIA	DGAIRLQ	QQYHRLPLV	nd 0.69 0.36 0.96 1.24 nd	0 of 18
NLGFEDANDNRGMMNVA	DVNTVGE	QQYNRLPLA	0.34 0.56 0.52 0.10 0.47 0.57	1 of 18 (1.83)
STLSHEEESKGADASVA	EASMLES	QQYHRLPLD	0.84 1.32 1.09 0.94 1.46 1.21	2 of 18 (2.78)
NIQDNLGGLLSQINSVA	STEELSD	QSYHRLPLS	1.49 0.79 0.27 0.51 1.49 0.57	1 of 18 (3.69)
SLELFSLEGDKPVNAVA	DEVVKTA	QQYFRLPLH	1.86 2.15 1.39 1.53 0.96 0.97	0 of 18
HIDDFEPSEGEKWNAIA	QDATRLQ	QAYARLPLS	2.59 nd nd 2.24 3.50 nd	0 of 18
QIDSFYQHGTDAKQAMA	DVSVRTQ	QQYSRLPLS	-0.16 -0.39 -0.43 -0.74 -0.40 -0.23	0 of 18
HVSSMDMTDGGIKKSVA	DDKETER	QQYMRLPLS	nd 4.45 2.23 2.39 3.64 2.10	1 of 18 (2.70)
SFDLTKSGMENERYSIA	ETSTLMT	QDYHRLPLA	nd 1.67 2.45 nd 2.08 3.34	0 of 18

Repeated from above, the 2 best binders with a signal in all replicates:

CDR-L1	CDR-L2	CDR-L3	log10 Kd (nM) by replicate	control signals
QIDSFYQHGTDAKQAMA	DVSVRTQ	QQYSRLPLS	-0.16 -0.39 -0.43 -0.74 -0.40 -0.23	0 of 18
SVRHPFQGENGMKGSVA	NATIRDH	QQYFRLPLF	0.21 -0.05 0.17 0.07 -0.24 0.27	1 of 18 (2.07)